Laboratory results published in ChEMBL document CHEMBL1641538, “Synthesis of a novel human PPARδ selective agonist and its stimulatory effect on oligodendrocyte differentiation” (Bioorg Med Chem Lett, 2011).

Biological target: T1, Peroxisome proliferator-activated receptor alpha (Homo sapiens, UniProt Q07869)
T1 sequence (Q07869 whole entry): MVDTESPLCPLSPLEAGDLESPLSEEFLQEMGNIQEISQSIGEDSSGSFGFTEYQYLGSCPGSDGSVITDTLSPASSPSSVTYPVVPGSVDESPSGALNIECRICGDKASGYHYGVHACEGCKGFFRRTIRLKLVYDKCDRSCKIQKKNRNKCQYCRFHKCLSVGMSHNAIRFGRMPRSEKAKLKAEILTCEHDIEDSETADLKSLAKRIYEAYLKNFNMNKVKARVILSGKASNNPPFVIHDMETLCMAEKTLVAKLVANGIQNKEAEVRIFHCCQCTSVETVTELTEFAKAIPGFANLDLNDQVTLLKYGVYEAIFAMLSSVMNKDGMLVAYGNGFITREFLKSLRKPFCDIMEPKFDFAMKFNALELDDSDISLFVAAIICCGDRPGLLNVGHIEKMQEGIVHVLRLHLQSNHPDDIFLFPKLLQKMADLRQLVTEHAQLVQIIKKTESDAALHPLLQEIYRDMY
Assay: Transactivation of Gal4-fused human PPARalpha DNA binding domain expressed in african green monkey CV1 cells by luciferase reporter gene assay
Type: cell-based, CV-1

Cc1nc(-c2ccc(C(F)(F)F)cc2)sc1C(=O)NCc1ccc(OC(C)(C)C(=O)O)cc1 [GW590735]
EC50: 10 nM
